# Source: patent US9499502B2, “5-substituted iminothiazines and their mono- and dioxides as BACE inhibitors, compositions, and their use” (Merck Sharp & Dohme Corp., priority 2011, dated 2016)
# Amino acid sequences for entries named in this document (tags omitted). Residues count along the entry.
# UniProt P56817, 75-416: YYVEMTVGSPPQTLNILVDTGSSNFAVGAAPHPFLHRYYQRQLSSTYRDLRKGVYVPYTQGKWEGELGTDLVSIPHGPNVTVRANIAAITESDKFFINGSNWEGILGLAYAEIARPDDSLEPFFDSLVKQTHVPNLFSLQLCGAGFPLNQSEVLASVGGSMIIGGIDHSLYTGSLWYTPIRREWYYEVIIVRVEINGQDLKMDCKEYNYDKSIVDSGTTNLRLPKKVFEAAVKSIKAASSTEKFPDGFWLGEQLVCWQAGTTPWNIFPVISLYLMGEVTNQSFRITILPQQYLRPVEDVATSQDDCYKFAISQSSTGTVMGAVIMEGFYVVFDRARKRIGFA
# UniProt Q9Y5Z0, 63-473: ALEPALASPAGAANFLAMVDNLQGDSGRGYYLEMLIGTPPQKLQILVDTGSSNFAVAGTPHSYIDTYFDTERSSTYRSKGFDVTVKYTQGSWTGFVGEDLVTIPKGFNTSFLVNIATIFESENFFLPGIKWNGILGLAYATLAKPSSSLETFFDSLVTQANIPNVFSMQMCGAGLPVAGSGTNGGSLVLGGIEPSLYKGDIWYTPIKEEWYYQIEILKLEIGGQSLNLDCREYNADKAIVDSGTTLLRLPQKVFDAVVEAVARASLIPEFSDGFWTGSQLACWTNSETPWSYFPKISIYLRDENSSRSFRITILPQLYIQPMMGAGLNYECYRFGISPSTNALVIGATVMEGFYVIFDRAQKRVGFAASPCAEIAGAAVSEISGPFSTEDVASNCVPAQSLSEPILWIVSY
# pKi: −log10 of the molar value. Like-named read-outs stand apart in the source and are kept apart here.
# How the values were obtained:
# [1] = biological target: soluble human BACE1 catalytic domain (Homo sapiens (Human), UniProt P56817); test: BACE1 HTRF FRET Assay; conditions: for Ki: BACE1 Ki (nM)
# [2] = biological target: purified human autoBACE-2 (Homo sapiens (Human), UniProt Q9Y5Z0); test: BACE-2 Assay (BACE-HTRF assay); format: biochemical; conditions: Ki calculated from IC50 using the Cheng-Prusoff equation; read-out: BACE2 Ki
Compound,Ki [1] [nM],further results
"COc1ccc(C(=O)Nc2ccc(F)c([C@]3(C)CS(=O)(=O)C(C)(c4ccccc4F)C(=N)N3)c2)nc1 (single isomer, unassigned) [Example 9do-b]",–,Ki ([1]; Ki calculated from IC50 using the Cheng-Prusoff equation): 20.8 nM
"Cc1nc2ccc(CC3(C)C(=N)N[C@](C)(c4cc(F)ccc4F)CS3(=O)=O)cc2o1 (single isomer, unassigned) [Example 32c-a]",3590,–
COc1ccc(C(=O)Nc2ccc(F)c([C@]3(C)CS(=O)(=O)[C@@](C)(c4ccccc4F)C(=N)N3)c2)nc1 [Example 9do-a],–,"pKi ([1]; read-out: BACE1 Ki, Ki calculated from IC50 using the Cheng-Prusoff equation): 7.74"
CC1(C)C(=N)N[C@](C)(c2sc(-c3cnc(-c4ccc(F)cc4)o3)cc2Cl)CS1(=O)=O [Example 27v],–,pKi [2]: ≥ 8.00

# The next lines start with results.
Ki [1] [nM],Compound,further results
2310,"Cc1nc2ccc(CC3(C)C(=N)N[C@](C)(c4cc(F)ccc4F)CS3(=O)=O)cc2o1 (single isomer, unassigned) [Example 32c-b]",–
2010,"COCC1(C)C(=N)N[C@](C)(c2cc(F)ccc2F)CS1(=O)=O (single isomer, unassigned) [Example 32d-a]",–
2910,"COCC1(C)C(=N)N[C@](C)(c2cc(F)ccc2F)CS1(=O)=O (single isomer, unassigned) [Example 32d-b]",–
